Reference: patent publication US4657931A, “N-(acyldipeptidyl)-aminoglycols” (G. D. Searle & Co., priority 1985, dated 1987)

The chains behind the UniProt entries cited, without tags or fusion partners. Residues count along the entry.
UniProt P00797, 67-406 limits assumed: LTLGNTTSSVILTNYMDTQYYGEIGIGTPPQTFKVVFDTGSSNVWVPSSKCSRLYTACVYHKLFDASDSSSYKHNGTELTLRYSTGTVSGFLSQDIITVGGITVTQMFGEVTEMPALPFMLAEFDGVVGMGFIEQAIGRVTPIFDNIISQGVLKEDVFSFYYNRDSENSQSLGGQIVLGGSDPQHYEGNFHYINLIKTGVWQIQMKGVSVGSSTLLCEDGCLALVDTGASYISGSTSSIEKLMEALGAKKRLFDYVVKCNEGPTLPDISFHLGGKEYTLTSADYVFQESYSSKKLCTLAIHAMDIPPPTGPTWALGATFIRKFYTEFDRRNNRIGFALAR

Molecular target: human renin (Homo sapiens, UniProt P00797)
Test: Human Renin Test (angiotensin I by radioimmunoassay)
Type: biochemical
Details: read-out: IC50, human renin inhibition (reference standards); human plasma as angiotensinogen source, 2 h, 37° C., pH 7.5

Question: `CC(C)C[C@H](NC(=O)[C@H](Cc1c[nH]cn1)NC(=O)[C@H](Cc1ccccc1)NC(=O)[C@@H]1CCCN1C(=O)[C@H](Cc1c[nH]cn1)NC(=O)[C@@H]1CCCN1)C(=O)N[C@@H](Cc1ccccc1)C(=O)N[C@H](C(=O)N[C@@H](Cc1ccc(O)cc1)C(=O)O)C(C)C` was tested. Which IC50 did it give?
Answer: Its IC50 is 6 µM.
